Target: T1, GRK2 (Homo sapiens, UniProt P25098)
T1 sequence (P25098 1-689): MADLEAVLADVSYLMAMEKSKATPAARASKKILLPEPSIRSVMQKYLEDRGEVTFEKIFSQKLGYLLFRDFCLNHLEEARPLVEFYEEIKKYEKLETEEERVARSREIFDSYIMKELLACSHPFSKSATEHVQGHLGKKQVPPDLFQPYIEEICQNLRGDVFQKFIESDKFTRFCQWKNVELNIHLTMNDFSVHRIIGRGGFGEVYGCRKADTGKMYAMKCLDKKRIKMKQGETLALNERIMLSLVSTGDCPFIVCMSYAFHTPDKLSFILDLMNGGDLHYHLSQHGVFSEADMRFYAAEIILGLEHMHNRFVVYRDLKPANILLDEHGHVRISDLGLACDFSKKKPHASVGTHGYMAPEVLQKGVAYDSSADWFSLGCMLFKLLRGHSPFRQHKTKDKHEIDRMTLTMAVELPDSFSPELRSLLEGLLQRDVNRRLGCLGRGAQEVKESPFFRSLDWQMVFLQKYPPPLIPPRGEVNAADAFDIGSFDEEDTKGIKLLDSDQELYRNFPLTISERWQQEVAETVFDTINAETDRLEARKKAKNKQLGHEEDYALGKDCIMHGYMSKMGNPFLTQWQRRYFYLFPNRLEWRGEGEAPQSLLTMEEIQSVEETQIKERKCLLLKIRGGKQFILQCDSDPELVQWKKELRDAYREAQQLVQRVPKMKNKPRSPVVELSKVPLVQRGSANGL
Details: read-out: GRK2 IC50; 10 nM GRK2; 10 uM ATP

Compound	IC50 [µM]
COc1cc(Cn2cnc3ccc(-c4cn[nH]c4)cc3c2=O)ccc1F [Compound 62, 3-[(4-Fluoro-3-methoxy-phenyl)methyl]-6-(1H-pyrazol-4-yl)quinazolin-4-one]	0.018
O=c1c2cc(-c3cn[nH]c3)c(F)cc2ncn1Cc1ccccc1 [Compound 69, 3-benzyl-7-fluoro-6-(1H-pyrazol-4-yl)quinazolin-4(3H)-one]	0.278
